Source: paper PMC3074252 (Journal of medicinal chemistry, 2011)

The compounds below were run on PC12 cells expressing G93A SOD1-YFP.
Format: cell-based
For `CC1(C)C(=O)N(CCc2ccccc2)C(=O)N(CCc2ccccc2)C1=O` [Compound 38, 5,5-Dimethyl-1,3-diphenethylpyrimidine-2,4,6(1H,3H,5H)-trione], the “activity in cytotoxicity protection assay” value (“activity” for short) was “no activity”. With `O=C1C(=CC2CCCCC2)C(=O)N(CCc2ccccc2)C(=O)N1CCc1ccccc1` [Compound 39, 5-(Cyclohexylmethylene)-1,3-diphenethylpyrimidine-2,4,6(1H,3H,5H)-trione] the “activity” value was “devoid of activity”. In the case of `CC1C(=O)N(CCc2ccccc2)C(=O)N(CCc2ccccc2)C1=O` [Compound 37, 5-Methyl-1,3-diphenethylpyrimidine-2,4,6(1H,3H,5H)-trione], the “activity” value is reported as “no activity”.
